Results from paper PMC5460201, “Bacterial protease uses distinct thermodynamic signatures for substrate recognition” (Scientific Reports, 2017).
Like-named read-outs stand apart in the source and are kept apart here.

Amino acid sequences for entries named in this document (tags omitted). Residues count along the entry.
UniProt F8WQK8, 22-717 S652A: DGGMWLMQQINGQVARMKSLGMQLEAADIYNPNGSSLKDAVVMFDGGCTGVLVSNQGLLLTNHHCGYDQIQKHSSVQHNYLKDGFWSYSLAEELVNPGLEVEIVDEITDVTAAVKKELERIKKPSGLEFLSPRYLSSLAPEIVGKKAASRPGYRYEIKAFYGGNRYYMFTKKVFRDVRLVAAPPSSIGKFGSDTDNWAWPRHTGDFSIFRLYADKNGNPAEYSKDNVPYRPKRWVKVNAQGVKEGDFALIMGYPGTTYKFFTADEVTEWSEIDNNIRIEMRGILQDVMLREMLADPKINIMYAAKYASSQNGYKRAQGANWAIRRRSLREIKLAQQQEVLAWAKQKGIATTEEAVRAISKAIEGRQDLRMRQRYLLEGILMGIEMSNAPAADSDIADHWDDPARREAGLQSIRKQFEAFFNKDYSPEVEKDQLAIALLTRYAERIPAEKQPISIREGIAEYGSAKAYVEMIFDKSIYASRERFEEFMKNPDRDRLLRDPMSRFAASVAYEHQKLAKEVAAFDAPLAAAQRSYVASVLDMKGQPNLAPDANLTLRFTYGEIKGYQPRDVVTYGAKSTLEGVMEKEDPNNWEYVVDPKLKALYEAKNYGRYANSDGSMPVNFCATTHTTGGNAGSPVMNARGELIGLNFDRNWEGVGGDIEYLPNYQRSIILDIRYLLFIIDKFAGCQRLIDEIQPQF

Molecular target: T1, PeDPP11 (PeDPP11_22-717 S652A) (Porphyromonas endodontalis, UniProt F8WQK8, S652A)
T1 construct: genes encoding for C-terminal 6xHis-tagged PeDPP11_22-717 S652A and PgDPP11_22-720 S655A in the pET-22b(+) vector; 6xHis (C); made in house; host or cells: E. coli BL21(DE3)pLysS
Test: Isothermal titration calorimetry (ITC) of peptide binding to PeDPP11
Procedure: All experiments were carried out in 10 mM Hepes-NaOH pH 7.4, 100 mM NaCl. Both the enzymes and the peptides were dissolved in the same buffer. The bindings were analysed with a MicroCal^TM iTC200 microcalorimeter (GE Healthcare, Life Sciences) equilibrated at the respective temperature. […] Every injection was carried out over a period of 4 s with a spacing of 110 s between the injections. […] These corrected values were plotted against the ratio peptide vs. protein concentration in the cell to generate the binding isotherm. Nonlinear least-squares fitting using Origin version 7.0 (Microcal) was used to obtain the association constants (K a), heats of binding (ΔH) and stoichiometries. […] The reported values are averages of at least two independent measurements.

| Compound | Kd [µM] | Kd (ITC, 5 °C (278 K), 10 mM Hepes-NaOH pH 7.4, 100 mM NaCl, averages of at least two independent measurements) [µM] | Kd (ITC, 20 °C (293 K), 10 mM Hepes-NaOH pH 7.4, 100 mM NaCl, averages of at least two independent measurements) [µM] |
| --- | --- | --- | --- |
| CC(C)C[C@H](N)C(=O)N[C@@H](CC(=O)O)C(=O)O [LD] | 1.8 ± 0.2 |  |  |
| CC(C)C[C@H](N)C(=O)N[C@@H](CC(=O)O)C(=O)N[C@H](C(=O)N[C@@H](Cc1c[nH]c2ccccc12)C(=O)O)C(C)C [LDVW, Leu-Asp-Val-Trp] | 2.8 ± 0.3 | 17.3 ± 2.2 | 5.6 ± 0.4 |
